# Experimental data: patent US20070059799A1 (priority 1999, published 2007)
# Chains of the proteins cited; added tags and fusions are not shown. Lines headed by an entry give the natural chain unless they say otherwise; changes in a name come on top. Residues count along the entry.
# UniProt P01889, 25-362: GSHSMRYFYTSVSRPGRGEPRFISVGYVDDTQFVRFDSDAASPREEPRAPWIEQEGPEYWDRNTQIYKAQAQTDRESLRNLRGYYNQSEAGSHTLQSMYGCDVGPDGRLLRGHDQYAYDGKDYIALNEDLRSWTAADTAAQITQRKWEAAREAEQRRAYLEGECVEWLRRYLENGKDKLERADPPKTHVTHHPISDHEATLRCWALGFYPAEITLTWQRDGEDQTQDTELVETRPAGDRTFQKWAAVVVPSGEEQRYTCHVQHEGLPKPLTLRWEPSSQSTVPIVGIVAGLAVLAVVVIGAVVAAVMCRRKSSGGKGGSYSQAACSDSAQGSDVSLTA
# How the values were obtained:
# B*5401 = B*5401 (Homo sapiens, UniProt P01889, A329T/C349S/D138N/D201E/E176V/E187T/E204Q/E69G/I76V/K202T/L119W/R155S/R180L/S121T/S35A/S48A/V127L/V306I/V36M/Y140L); format: binding
# HLA-A*0201 = HLA-A*0201 (Homo sapiens, UniProt P04439, D140Y/D185E/D98H/E176V/E277Q/G131W/G231S/I119V/I121R/I166T/I218V/L300P/L318F/N151K/N90K/P208A/P217A/Q86G/Q94H/R138H/R169H/T345S)
# A*0202 = A*0202 (Homo sapiens, UniProt P04439, D140Y/D185E/D98H/E176V/E277Q/G131W/G231S/I119L/I121R/I166T/I218V/L180W/L300P/L318F/N151K/N90K/P208A/P217A/Q67R/Q86G/Q94H/R138H/R169H/T345S); assay: Purified HLA class I peptide binding assay
# A*0203 = A*0203 (Homo sapiens, UniProt P04439, A173T/D140Y/D185E/D98H/E277Q/G131W/G231S/I119V/I121R/I166T/I218V/L180W/L300P/L318F/N151K/N90K/P208A/P217A/Q86G/Q94H/R138H/R169H/T345S); assay: Purified HLA class I peptide binding assay
# A*0206 = A*0206 (Homo sapiens, UniProt P04439, D140Y/D185E/D98H/E176V/E277Q/F33Y/G131W/G231S/I119V/I121R/I166T/I218V/L300P/L318F/N151K/N90K/P208A/P217A/Q86G/Q94H/R138H/R169H/T345S); assay: Purified HLA class I peptide binding assay
# A*6802 = A*6802 (Homo sapiens, UniProt P04439, A269V/D140Y/D185E/E176V/E277Q/E87N/F33Y/G231S/I121R/I166T/I218V/L180W/L300P/L318F/N151K/P208A/P217A/Q86R/R138H/R169H/S129P/T345S/V36M); assay: Purified HLA class I peptide binding assay
# HLA-B*0702 = target: T1, HLA-B*0702 (Homo sapiens, UniProt P01889); assay: Purified HLA class I peptide binding assay; conditions: HBV B07 supermotif peptides, Table XI; unit not given
# T1 construct: endogenous in cells
# B51 = assay: Purified HLA class I peptide binding assay (B*51); parameters: species or system human; conditions: HBV B07 supermotif peptides, Table XI; unit not given
sequence,measurement,setting,value
TPPAYRPPNA,B*5401 (binding information),B*5401,0.0100
VLLDYQGMLPV,A*0201 (binding information),HLA-A*0201,0.5800
same,A*0202 (binding information),A*0202,0.2200
same,A*0203 (binding information),A*0203,4.9000
same,A*0206 (binding information),A*0206,0.3400
same,A*6602 (binding information),A*6802,0.0170
VPNLQSLTNL,B*0702 (binding information),HLA-B*0702,0.0008
same,B*5101 (binding information),B51,0.0004
